# Cyclic peptide permeability, from CycPeptMPDB

Source: CycPeptMPDB (Li et al. 2023), which took these values from Townsend et al. 2020, doi:10.26434/chemrxiv.13335941.v1.

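The data file gives no further conditions (lipid, pH, time, direction or concentration), and values from different papers need not be comparable. Other peptides of the study may be missing here. Entries at the database's floor value (log10 P of -10) are not listed.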

PAMPA is the parallel artificial membrane permeability assay, which has no cells and reads passive diffusion.
Permeability is given as log10 of P in cm/s; higher (less negative) is more permeable.

| PAMPA (log10 cm/s) | structure (SMILES) |
|---|---|
| -6.80 | CC(C)C[C@@H]1NC(=O)[C@@H]2CCCN2C(=O)CN(Cc2ccccc2)C(=O)CN(Cc2ccccc2)C(=O)[C@@H](C)N(C)C(=O)[C@@H]2CCCN2C(=O)[C@H](Cc2ccccc2)NC1=O |
| -5.74 | CCCN1CC(=O)N(C)[C@H](CC(C)C)C(=O)N[C@@H](Cc2ccccc2)CC(=O)N2CCC[C@@H]2C(=O)N(Cc2ccccc2)CC(=O)N[C@@H](Cc2ccccc2)C(=O)N2CCC[C@@H]2C1=O |
| -5.25 | CCCN1CC(=O)N(C)[C@@H](CC(C)C)C(=O)N[C@@H](CC(C)C)C(=O)N2CCC[C@@H]2C(=O)N(Cc2ccccc2)CC(=O)N[C@@H](Cc2ccccc2)C1=O |
| -5.13 | CCCN1CC(=O)N[C@@H](CC(C)C)C(=O)N(C)[C@@H](CC(C)C)C(=O)N2CCC[C@@H]2C(=O)N(Cc2ccccc2)CC(=O)N[C@@H](Cc2ccccc2)C1=O |
| -5.88 | CC(C)C[C@H]1C(=O)N(Cc2ccccc2)CC(=O)N2CCC[C@@H]2C(=O)N(Cc2ccccc2)CC(=O)N[C@@H](Cc2ccccc2)C(=O)N2CCC[C@@H]2C(=O)N[C@@H](Cc2ccccc2)CC(=O)N1C |
| -5.80 | CC(C)C[C@H]1NC(=O)[C@@H]2CCCN2C(=O)[C@@H](CC(C)C)NC(=O)CN(Cc2ccccc2)C(=O)[C@H](C)N(C)C(=O)[C@@H]2CCCN2C(=O)[C@H](Cc2ccccc2)NC1=O |
| -6.80 | CC(C)C[C@@H]1NC(=O)[C@H]2CCCN2C(=O)CN(Cc2ccccc2)C(=O)CN(Cc2ccccc2)C(=O)C[C@H](Cc2ccccc2)NC(=O)[C@H]2CCCN2C(=O)[C@H](Cc2ccccc2)NC1=O |
| -6.05 | CC(C)C[C@H]1C(=O)N(Cc2ccccc2)CC(=O)N2CCC[C@H]2C(=O)N(Cc2ccccc2)CC(=O)N[C@@H](Cc2ccccc2)C(=O)N2CCC[C@@H]2C(=O)N[C@@H](C)C(=O)N1C |
| -5.76 | CC(C)C[C@@H]1NC(=O)C[C@H](Cc2ccccc2)NC(=O)[C@H]2CCCN2C(=O)[C@H](Cc2ccccc2)NC(=O)CN(Cc2ccccc2)C(=O)[C@@H]2CCCN2C(=O)CN(Cc2ccccc2)C1=O |
| -6.22 | C[C@H]1C(=O)N(Cc2ccccc2)CC(=O)N(Cc2ccccc2)CC(=O)N2CCC[C@@H]2C(=O)N(Cc2ccccc2)CC(=O)N[C@@H](Cc2ccccc2)C(=O)N1C |
| -5.37 | CC(C)C[C@@H]1NC(=O)C[C@H](Cc2ccccc2)NC(=O)[C@H](Cc2ccccc2)NC(=O)[C@H](CC(C)C)N(C)C(=O)[C@@H]2CCCN2C(=O)CN(Cc2ccccc2)C1=O |
| -5.33 | CCCN1CC(=O)N[C@H](CC(C)C)C(=O)N[C@@H](Cc2ccccc2)CC(=O)N2CCC[C@@H]2C(=O)N(C)[C@H](CC(C)C)C(=O)N[C@@H](Cc2ccccc2)C1=O |